Test results taken from patent publication US20240383958A1, “APELIN RECEPTOR AGONISTS AND USES THEREOF” (VISTERRA, INC., priority 2023, published 2024).
Positions count from the first letter of the chain named. Names may count otherwise.

B1: APL-M: Leader-Fc-linker fusion of apelin analogue QRPRLSHWGPMAW (K8W, P12A, F13W) (protein)
chain: MRAWIFFLLCLAGRALADKTHTSPPSPAPEAAGGPSVFLFPPKPKDTLMISRTPEVTCVVVDVSHEDPEVKFNWYVDGVEVHNAKTKPREEQYNSTYRVVSVLTVLHQDWLNGKEYKCKVSNKALPAPIEKTISKAKGQPREPQVYTLPPSREEMTKNQVNLTCLVKGFYPSDIAVEWESNGQPENNYKTTPPVLDSDGSFFLNSTLTVDKSRWQQGNVFSCSVMHEALHNHYTQKSLSLSPGKGGGGSGGGGSGGGGSQRPRLSHWGPMAW
B2: APL-A: Monovalent IgG1 Fc fused via GGGGSGGGGSGGGGS linker to wild-type apelin-13 QRPRLSHKGPMPF (protein)
chain: B1 chain with W267K, A271P, W272F

Tests used:
[1] = target: T1, apelin receptor (Homo sapiens, UniProt P35414); settings: human heart; cited from earlier work
T1 construct: host or cells: human heart tissue
T1 sequence (P35414 1-380): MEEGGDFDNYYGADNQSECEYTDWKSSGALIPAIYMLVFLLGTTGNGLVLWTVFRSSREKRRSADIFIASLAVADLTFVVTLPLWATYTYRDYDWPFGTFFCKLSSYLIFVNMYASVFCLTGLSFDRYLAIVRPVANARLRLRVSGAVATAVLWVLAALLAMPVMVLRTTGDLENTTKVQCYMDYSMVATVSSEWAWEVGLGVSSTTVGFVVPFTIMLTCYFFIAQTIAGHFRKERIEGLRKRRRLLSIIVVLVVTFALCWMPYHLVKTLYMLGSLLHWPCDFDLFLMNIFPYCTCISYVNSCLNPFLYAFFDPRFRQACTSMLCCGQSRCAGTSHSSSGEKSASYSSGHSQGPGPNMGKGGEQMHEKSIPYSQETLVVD

[2] = target: T2, apelin receptor (AGTRL1) (Homo sapiens, UniProt P35414); test: PathHunter beta-arrestin signaling assay; format: cell-based; settings: PathHunter CHO-K1 AGTRL1 β-arrestin cells
T2 construct: host or cells: CHO-K1
T2 sequence (P35414 1-380): T1 sequence (P35414 1-380)
Method: In this example, commercially available HitHunter® cAMP assay was used to determine the effect of apelin receptor agonists on Gai signaling, measured cAMP depletion. Next, commercially available PathHunter® beta-arrestin assay was used to determine the effect of apelin receptor agonists on beta-arrestin signaling. Additionally, the effect of apelin receptor agonists on ERK signaling was determined.
In a 384-well plate (Corning #3897), PathHunter® CHO-K1 AGTRL1 β-arrestin cells (Eurofins DiscoverX #93-0250C2) were seeded at 5×10^3 cells/well in 20 μL AssayComplete Cell Plating 2 Reagent (Eurofins DiscoverX #93-0563R2A) and were incubated overnight at 37° C. with 5% CO2. On the following day, the plate was treated with 5 μL/well of compounds serially diluted in 1×PBS+0.1% BSA buffer and was incubated for 1.5 hr at 37° C. with 5% CO2. Then, 12.5 μL/well of detection solution was added, prepared as instructed in the PathHunter® Detection Kit (Eurofins DiscoverX #93-0001), the plate was wrapped in foil, and was incubated at room temperature. Plates were read after 1-2 hr of incubation on a standard luminescence plate reader. In this assay, low levels of β-arrestin in cells were directly related to low luminescence signal. Using Four Parameter Logistic Regression for curve fitting, the raw data file was processed into S-shaped dose-response curves from which values, such as the EC50, Hill Slope, and Emax, were quantified.

Molecule | affinity for the apelin receptor [1] | beta-Arrestin EC50 (nM) Exp. 1 ([2]; Exp. 1) | beta-Arrestin EC50 (nM) Exp. 2 [2]
elabela-11 | affinity an order of magnitude lower than that of the other peptides |  | 
elabela-32 | subnanomolar affinity |  | 
B1 |  | Weak | Weak
B2 |  |  | Weak
